Measured values: publication PMC3747596 (PLoS ONE, 2013)

Amino acid sequences for entries named in this document (tags omitted).
UniProt P35372, whole entry: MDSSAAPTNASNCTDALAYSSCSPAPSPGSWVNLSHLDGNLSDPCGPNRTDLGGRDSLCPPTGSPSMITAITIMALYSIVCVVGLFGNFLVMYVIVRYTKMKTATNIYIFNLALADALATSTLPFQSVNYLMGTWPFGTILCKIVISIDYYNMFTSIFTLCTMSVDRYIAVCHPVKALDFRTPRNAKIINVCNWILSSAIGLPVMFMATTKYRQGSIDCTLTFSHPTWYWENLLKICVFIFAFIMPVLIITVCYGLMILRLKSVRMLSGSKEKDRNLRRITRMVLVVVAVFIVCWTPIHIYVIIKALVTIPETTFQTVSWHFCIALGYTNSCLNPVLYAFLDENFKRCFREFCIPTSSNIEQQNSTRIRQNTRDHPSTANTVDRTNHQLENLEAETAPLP

Tests used:
[1] = target: T1, μ opioid receptor (Homo sapiens, UniProt P35372); test: Radioligand displacement, μ; assay type: binding
T1 construct: expressed in transfected cells

[2] = target: T2, δ opioid receptor (Homo sapiens, UniProt P41143); test: Radioligand displacement, δ; assay type: binding; conditions: radioligand displacement (Table 1)
T2 construct: expressed in transfected cells

CC(C)[C@@H](CN1CC[C@@](C)(c2cccc(O)c2)[C@@H](C)C1)NC(=O)[C@H]1Cc2ccc(O)cc2CN1 [JDTic]
Ki [1]: 3 nM | Ki [2]: 44 nM
